Data as given in patent US10150764B2, “Substituted benzene compounds” (Epizyme, Inc., priority 2013, dated 2018).

Sequences of proteins named here, by UniProt entry; tags and fusion partners are left off.
UniProt Q15910, whole entry: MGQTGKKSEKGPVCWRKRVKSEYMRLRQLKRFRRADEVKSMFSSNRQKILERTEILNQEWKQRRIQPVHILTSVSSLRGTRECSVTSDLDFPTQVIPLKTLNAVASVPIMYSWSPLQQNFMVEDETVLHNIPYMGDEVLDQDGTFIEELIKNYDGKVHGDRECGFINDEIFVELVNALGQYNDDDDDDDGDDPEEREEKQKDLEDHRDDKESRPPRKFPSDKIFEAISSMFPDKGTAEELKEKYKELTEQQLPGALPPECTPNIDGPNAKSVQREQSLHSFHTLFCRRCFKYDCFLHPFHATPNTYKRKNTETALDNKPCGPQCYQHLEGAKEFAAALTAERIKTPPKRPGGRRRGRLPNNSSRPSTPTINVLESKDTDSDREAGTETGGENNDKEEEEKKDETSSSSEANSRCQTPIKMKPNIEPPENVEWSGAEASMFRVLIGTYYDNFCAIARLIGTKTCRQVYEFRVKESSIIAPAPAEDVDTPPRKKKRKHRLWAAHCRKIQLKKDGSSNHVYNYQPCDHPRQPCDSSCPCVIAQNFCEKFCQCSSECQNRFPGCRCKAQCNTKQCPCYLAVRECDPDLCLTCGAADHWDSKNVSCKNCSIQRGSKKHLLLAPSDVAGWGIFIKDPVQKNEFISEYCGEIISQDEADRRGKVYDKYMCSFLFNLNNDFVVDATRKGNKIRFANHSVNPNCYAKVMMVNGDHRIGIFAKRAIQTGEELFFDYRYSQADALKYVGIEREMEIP

Target: wild-type EZH2 (PRC2 enzyme) (Homo sapiens (Human), UniProt Q15910)
Test: PRC2 enzyme assay on peptide substrate, wild-type EZH2 (H3K27me0 peptide, 3H-SAM Flashplate)
Type: biochemical
Conditions: wild-type PRC2 4 nM, read-out: WT EZH2 IC50

- IC50: 75 nM
SMILES: CCN(c1cc(Cl)cc(C(=O)NCc2c(CCN(C)C)cc3n(c2=O)NCC3)c1C)[C@H]1CC[C@H](N(C)C)CC1 [Compound 1, 5-chloro-3-(((trans)-4-(dimethylamino)cyclohexyl)(ethyl)amino)-N-((5-(2-(dimethylamino)ethyl)-7-oxo-1,2,3,7-tetrahydropyrazolo[1,5-a]pyridin-6-yl)methyl)-2-methylbenzamide]
